Bioassay records as filed in PubChem.
UUG fidelity: modulators of start codon recognition fidelity in yeast; AID 602363; hit rate 0.13% among 350,000; activity score, % at 18.7 µM; S. cerevisiae UUG-firefly luciferase reporter, luminescence/redox ratio;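 active = replicate mean at a twofold rise or more, about +100% in these data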;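 note: firefly luciferase made from a UUG start codon reports start codon fidelity; reporter light over untreated wells divided by growth signal over untreated wells; some hits fall short of that in this replicate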
Rtt109 HAT inh: inhibitors of C. albicans Rtt109/Vps75 HAT, primary screen, biochemical, ThioGlo CoA-SH fluorescence, plate reader; 330,000 tested, 0.16% active; purified Rtt109/Vps75, 4 h; inhibition, % at 34.9 µM;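 active = inhibition of at least 50% in every replicate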
Cneo AK release: Cryptococcus neoformans cell lysis inducers, primary screen, AK release luminescence, single concentration; 360,000 tested, 0.2% active; C. neoformans lysis, adenylate kinase release luminescence, 4 h; normalised: neutral wells 0, clomiphene wells 100; lysis activity, % at 15 µM;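 active = mean lysis activity across replicates of at least 80%, whatever share of replicates individually reach that level; inactive = mean lysis activity below 80%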
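Assay system: C. neoformans cells. Amount: yeast cell density of 5 × 10^6 cells/mL. Technique: AK luminescence. Buffer or medium: YPD. Times: static 4 h at 37 °C with compound, 1 h detection. Dosing: single-point compound dose. Read-out: lysis from increased AK signal.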
CDK5 p35 inh: inhibitors of human CDK5/p35 kinase, primary screen, biochemical, single concentration; 330,000 tested, 0.01% active; inhibition, % at 10 µM; Recombinant CDK5/p35, ADP-Glo luminescence, 60 min; AID 488839, 2010; Cyclin-dependent kinase 5 (Homo sapiens) + Cyclin-dependent kinase 5 activator 1 (Homo …;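 active = highest replicate inhibition of at least 50% and at least 75% of replicates reaching 50%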
Statin myotox sup: suppressors of statin myotoxicity in C2C12 myotubes, primary screen, cell-based, single point, plate reader; rescue of ATP level, % at 7.49 µM; C2C12 myotubes + simvastatin, ATP luminescence, 48 h; scaled: DMSO 0, geranylgeraniol control 100; 330,000 tested, 0.78% active;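 active = mean ATP rescue above about 67%, or every replicate alone reaching that limit, limit read from the data, passing the limit was not always enough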;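 note: myotubes were challenged with 10 µM simvastatin during compound exposure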
Large screens that a line does not name were inactive. A selection: hits, their analogues and other compounds. The true share with any hit is near 1%.

C[C@H](CO)N1C[C@H](C)[C@@H](CN(C)Cc2ccc(-c3ccccc3)cc2)Oc2ccc(NC(=O)Cc3ccccc3)cc2CC1=O	Statin myotox sup 76 (no result: Rtt109 HAT inh, CDK5 p35 inh)
C[C@H](CO)N1C[C@H](C)[C@@H](CN(C)Cc2ccc(-c3ccccc3)cc2)Oc2ccc(NC(=O)Cc3cn(C)c4ccccc34)cc2CC1=O	Statin myotox sup 102 (no result: UUG fidelity, Rtt109 HAT inh, Cneo AK release, CDK5 p35 inh)
C[C@H](CO)N1C[C@H](C)[C@H](CN(C)Cc2ccc(-c3ccccc3)cc2)Oc2ccc(NC(=O)Cc3ccccc3)cc2CC1=O	none (no result: Rtt109 HAT inh, CDK5 p35 inh)
C[C@@H]1CN([C@@H](C)CO)C(=O)Cc2cc(NC(=O)Cc3cn(C)c4ccccc34)ccc2O[C@H]1CN(C)Cc1ccc(C(F)(F)F)cc1	Statin myotox sup 104 (no result: Rtt109 HAT inh, CDK5 p35 inh)
C[C@H](CO)N1C[C@H](C)[C@@H](CN(C)C(=O)c2ccc(F)cc2)Oc2ncc(/C=C/c3ccccc3)cc2C1=O	none (no result: Rtt109 HAT inh, CDK5 p35 inh)
CO[C@H]1CC[C@H]2CCN(C)C(=O)[C@H](C)CN(C)C(=O)c3cccc(C#N)c3OC[C@H]1O2	none (no result: UUG fidelity, Rtt109 HAT inh, CDK5 p35 inh)
CCCN1C[C@@H](C)[C@H](OC)CN(C)C(=O)c2cc(NC(=O)c3cnccn3)ccc2OC[C@H]1C	none (no result: UUG fidelity, Rtt109 HAT inh, CDK5 p35 inh)
C[C@@H]1CN([C@@H](C)CO)C(=O)c2cc(NC(=O)C3CCCCC3)ccc2O[C@H]1CN(C)Cc1ccc(C(=O)O)cc1	none (no result: Rtt109 HAT inh, CDK5 p35 inh)
Cc1cc(C)n2nc(C)c(-c3ccc(Cl)cc3)c2n1	none
CCSc1cc(C)nc2c(-c3ccc(Cl)cc3)c(C)nn12	Statin myotox sup 93
COCCNC(=O)C[C@@H]1C[C@@H]2c3cc(NC(=O)Nc4ccccc4F)ccc3O[C@@H]2[C@@H](CO)O1	none (no result: Rtt109 HAT inh, CDK5 p35 inh)
C[C@H](O)C#Cc1ccc2c(c1)O[C@H](CN(C)C(=O)C1CCCCC1)[C@H](C)CN([C@@H](C)CO)S2(=O)=O	Cneo AK release 94 (no result: Rtt109 HAT inh, CDK5 p35 inh)
C[C@@H]1CN([C@@H](C)CO)S(=O)(=O)c2ccc(-c3ccccc3)cc2O[C@@H]1CN(C)C(=O)C1CCCCC1	none (no result: Rtt109 HAT inh, CDK5 p35 inh)
C[C@H](O)C#Cc1ccc2c(c1)O[C@@H](CN(C)C(=O)C1CCCCC1)[C@@H](C)CN([C@H](C)CO)S2(=O)=O	none (no result: Rtt109 HAT inh, CDK5 p35 inh)
C[C@@H]1CN([C@H](C)CO)S(=O)(=O)c2ccc(-c3ccccc3)cc2O[C@H]1CN(C)C(=O)C1CCCCC1	Cneo AK release 105 (no result: Rtt109 HAT inh, CDK5 p35 inh)
CC(C)C[C@H]1CN=C(Nc2ccccc2)N1CCCCc1ccccc1	Statin myotox sup 105
CC(C)CCCN1C(Nc2ccccc2)=NC[C@@H]1CC(C)C	none
N#Cc1ccccc1N=C1CCCN1Cc1ccccc1	none
Cc1cc(C)c(N=C2CCCN2Cc2ccccc2)c(C#N)c1	Statin myotox sup 84
CCOC(=O)C1=NN(C(=O)COc2ccccc2)C(O)(c2ccc(Cl)cc2)C1 (configuration not stated)	none (no result: UUG fidelity, Cneo AK release, Statin myotox sup)
CCOC(=O)C1=NN(C(=O)Cc2ccccc2)C(O)(c2ccc(Cl)cc2)C1 (configuration not stated)	Statin myotox sup 139
Nc1ncnc2nc(SCc3ccccc3)[nH]c12	Statin myotox sup 99
C[C@H](CO)N1C[C@H](C)[C@@H](CN(C)Cc2ccc(Oc3ccccc3)cc2)Oc2ccc(NC(=O)Nc3ccccc3)cc2CC1=O	Statin myotox sup 79 (no result: Rtt109 HAT inh, CDK5 p35 inh)
C[C@@H]1CN([C@@H](C)CO)C(=O)Cc2cc(NC(=O)Nc3cccc4ccccc34)ccc2O[C@@H]1CN(C)Cc1ccc(C(=O)O)cc1	Cneo AK release 115 (no result: Rtt109 HAT inh, CDK5 p35 inh)
C[C@@H]1CN([C@@H](C)CO)C(=O)Cc2cc(NC(=O)Nc3cccc4ccccc34)ccc2O[C@H]1CN(C)Cc1ccc2c(c1)OCO2	Statin myotox sup 75 (no result: Rtt109 HAT inh, CDK5 p35 inh)
C[C@H]1CN([C@@H](C)CO)C(=O)Cc2cc(NC(=O)Nc3ccccc3)ccc2O[C@H]1CN(C)Cc1ccc(Oc2ccccc2)cc1	none (no result: Rtt109 HAT inh, CDK5 p35 inh)
C[C@@H]1CN([C@H](C)CO)C(=O)Cc2cc(NC(=O)CCC(F)(F)F)ccc2O[C@H]1CN(C)Cc1ccccc1	none (no result: Rtt109 HAT inh, CDK5 p35 inh)
C[C@@H]1CN([C@H](C)CO)C(=O)Cc2cc(NC(=O)CCC(F)(F)F)ccc2O[C@H]1CN(C)Cc1ccc(Oc2ccccc2)cc1	Statin myotox sup 102 (no result: Rtt109 HAT inh, CDK5 p35 inh)
